Values quoted from earlier work, collected in patent US11040119B2, “Compositions and methods for assessing neuromuscular function” (Biogen MA Inc., priority 2013, dated 2021).

Tests used:
[1] = prepared radiopharmaceutical; cited from earlier work
[2] = in vivo; cited from earlier work

^99mTc tetrofosmin
stability [1]: 6 h | biological half-life [2]: long | extraction efficiency [2]: high
